Earlier results as cited in patent US20070237728A1, “Method and Composition for Dental Bleaching” (HIGH TECH LASER, priority 2000, published 2007).

System: teeth
Conditions: tetracycline staining of teeth

Tetracycline chloride
type of teeth discolouration caused: grey-brown discolouration
